We go through three molecules from patent US6897208B2, “Benzimidazoles” (Aventis Pharmaceuticals Inc., priority 2001, dated 2005).

Chains of the proteins cited; added tags and fusions are not shown. Residues count along the entry.
UniProt P35968, 786-1356 limits assumed: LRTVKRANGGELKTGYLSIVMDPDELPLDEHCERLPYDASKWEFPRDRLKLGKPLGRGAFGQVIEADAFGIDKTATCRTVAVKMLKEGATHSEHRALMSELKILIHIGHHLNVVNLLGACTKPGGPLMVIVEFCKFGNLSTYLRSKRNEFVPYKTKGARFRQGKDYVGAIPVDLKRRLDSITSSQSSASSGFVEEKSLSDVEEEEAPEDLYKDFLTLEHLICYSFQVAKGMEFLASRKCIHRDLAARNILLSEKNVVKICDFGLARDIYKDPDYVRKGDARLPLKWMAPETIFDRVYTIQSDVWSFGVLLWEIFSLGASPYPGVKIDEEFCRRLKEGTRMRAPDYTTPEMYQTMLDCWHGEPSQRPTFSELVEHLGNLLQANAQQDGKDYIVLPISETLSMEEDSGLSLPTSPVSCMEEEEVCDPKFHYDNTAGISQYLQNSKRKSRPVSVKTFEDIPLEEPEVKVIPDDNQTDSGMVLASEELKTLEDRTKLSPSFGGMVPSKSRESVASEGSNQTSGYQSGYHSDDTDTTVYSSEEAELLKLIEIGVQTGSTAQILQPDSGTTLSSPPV

Molecules are shown by their SMILES.

This assay concerns the target human KDR enzyme (Homo sapiens, UniProt P35968). The assay can be described thus: Phosphorylation of PLCγ substrate by the enzyme KDR in vitro (flashplate technique). As to conditions: read-out: Activity (IC50 class); Table 6; degrees of activity in 'the above tests'. How it is done: 1. Inhibitory Effects of Compounds on KDR
The inhibitory effect of the compounds is determined in a test of phosphorylation of a substrate by the enzyme KDR in vitro by the flasplate technique (96-well plate, NEN).
The cytoplasmic domain of human KDR enzyme is cloned in the form of a GST fusion into the baculovirus expression vector pFastBac. The protein is expressed in the SF21 cells and purified to about 60% homogeneity.
The kinase activity of KDR is measured in 20 mM MOPS, 10 mM MgCl2, 10 mM MnCl2, 1 mM DTT, 2.5 mM EGTA, 10 mM β glycerophosphate, pH 7.2 in the presence of 10 mM MgCl2, 100 μM Na3VO4, 1 mM NaF. 10 μl of the compound are added to 70 μl of kinase buffer containing 100 ng of KDR enzyme at 4° C. The reaction is initiated by adding 20 μl of solution containing 2 μg of substrate (fragment SH2-SH3 of PLCγ expressed in the form of a GST fusion protein), 2 μCi γ33P[ATP] and 2 μM cold ATP. After incubating for 1 hour at 37° C., the reaction is quenched by adding 1 volume (100 μl) of 200 mM EDTA. The incubation buffer is removed and the wells are washed three times with 300 μl of PBS. The radioactivity is measured in each well using a Top Count NXT instrument (Packard).
Background noise is determined by measuring the radioactivity in wells in quadruplet containing radioactive ATP and the substrate alone.
An activity control is measured in wells in quadruplet containing all the reagents (γ33P-[ATP], KDR and the substrate PLCγ) and in the absence of compound.
The inhibition of the KDR activity with the compound of the invention is expressed as a percentage of inhibition of the control activity determined in the absence of compound.
The compound SU5614 (Calbiochem) (1 μM) is included in each plate as inhibition control.
The IC50 values for the compounds are calculated by plotting the dose-response curves. The IC50 corresponds to the concentration of compound that induces a 50% inhibition of the kinase activity.

On to `CC(C)=CCC/C(C)=C/COc1cc(-c2nc3ccccc3[nH]2)[nH]n1`, for which the IC50 – broadly, the concentration at which inhibition is half-maximal – was in the range of 300 to 3000 nM.
For `Brc1cccc(COc2cc(-c3nc4ccccc4[nH]3)[nH]n2)c1` the value was 300 to 3000 nM; for `O=C(Oc1cc(-c2nc3ccccc3[nH]2)[nH]n1)c1ccc(C(F)(F)F)cc1`, greater than 3000 nM.
